Earlier results on 2 compounds are cited in patent publication US6803486B2, “Selective neuronal nitric oxide synthase inhibitors” (Northwestern University, priority 2001, dated 2004).

Amino acid sequences for entries named in this document (tags omitted).
UniProt P29476, whole entry: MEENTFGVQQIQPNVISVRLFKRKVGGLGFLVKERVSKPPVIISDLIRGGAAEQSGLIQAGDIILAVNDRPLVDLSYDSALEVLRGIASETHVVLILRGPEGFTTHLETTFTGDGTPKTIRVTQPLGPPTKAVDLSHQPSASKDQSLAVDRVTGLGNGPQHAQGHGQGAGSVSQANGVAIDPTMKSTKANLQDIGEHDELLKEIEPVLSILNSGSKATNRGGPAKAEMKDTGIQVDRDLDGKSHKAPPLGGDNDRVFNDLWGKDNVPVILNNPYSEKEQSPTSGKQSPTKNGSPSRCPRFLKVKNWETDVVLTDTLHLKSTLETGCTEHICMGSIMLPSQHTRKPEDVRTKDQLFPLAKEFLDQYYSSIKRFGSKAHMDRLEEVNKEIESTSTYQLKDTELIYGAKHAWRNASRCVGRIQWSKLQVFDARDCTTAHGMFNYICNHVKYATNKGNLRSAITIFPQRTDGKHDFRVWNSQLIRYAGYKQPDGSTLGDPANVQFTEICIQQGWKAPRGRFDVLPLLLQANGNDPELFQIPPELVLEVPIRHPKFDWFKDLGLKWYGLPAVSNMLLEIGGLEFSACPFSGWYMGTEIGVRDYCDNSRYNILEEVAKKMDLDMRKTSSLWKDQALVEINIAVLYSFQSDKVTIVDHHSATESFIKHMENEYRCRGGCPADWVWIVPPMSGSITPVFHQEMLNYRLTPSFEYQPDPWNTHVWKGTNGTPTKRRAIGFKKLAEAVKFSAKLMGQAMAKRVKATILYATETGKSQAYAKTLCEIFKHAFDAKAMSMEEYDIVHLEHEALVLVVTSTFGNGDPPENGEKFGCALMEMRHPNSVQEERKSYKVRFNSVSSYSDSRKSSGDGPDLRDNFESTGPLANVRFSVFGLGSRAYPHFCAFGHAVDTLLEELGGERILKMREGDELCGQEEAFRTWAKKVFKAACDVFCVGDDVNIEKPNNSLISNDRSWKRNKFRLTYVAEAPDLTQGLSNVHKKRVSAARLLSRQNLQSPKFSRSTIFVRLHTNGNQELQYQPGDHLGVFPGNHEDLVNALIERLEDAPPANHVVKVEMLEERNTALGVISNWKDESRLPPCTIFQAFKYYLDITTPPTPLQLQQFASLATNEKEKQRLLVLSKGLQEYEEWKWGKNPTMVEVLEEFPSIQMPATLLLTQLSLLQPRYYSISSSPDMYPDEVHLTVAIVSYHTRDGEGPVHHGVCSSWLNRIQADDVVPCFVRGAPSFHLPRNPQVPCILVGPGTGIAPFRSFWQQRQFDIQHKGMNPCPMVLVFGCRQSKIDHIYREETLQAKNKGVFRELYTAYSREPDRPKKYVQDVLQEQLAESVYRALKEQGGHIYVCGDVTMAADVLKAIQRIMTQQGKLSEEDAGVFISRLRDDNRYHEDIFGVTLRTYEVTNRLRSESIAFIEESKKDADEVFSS

In the series the target is recombinant rat nNOS (Rattus norvegicus, UniProt P29476). The settings on record: Table 1; ratio of Ki; data taken from literature; cited from earlier work.

Regarding `N=C(NCCC[C@H](N)C(=O)NCCCCN)N[N+](=O)[O-]`, the Selectivity eNOS/nNOS was 200 and the Selectivity iNOS/nNOS is 308.

`N=C(NCCC[C@H](N)C(=O)NCCN)N[N+](=O)[O-]`: the Selectivity eNOS/nNOS is 368 and the Selectivity iNOS/nNOS is 185.
